By UniProt entry, the sequences of proteins in these tests, tags left out. Where a name states a change or a piece, a line headed by the entry shows the natural chain unless it says otherwise.
UniProt P53341: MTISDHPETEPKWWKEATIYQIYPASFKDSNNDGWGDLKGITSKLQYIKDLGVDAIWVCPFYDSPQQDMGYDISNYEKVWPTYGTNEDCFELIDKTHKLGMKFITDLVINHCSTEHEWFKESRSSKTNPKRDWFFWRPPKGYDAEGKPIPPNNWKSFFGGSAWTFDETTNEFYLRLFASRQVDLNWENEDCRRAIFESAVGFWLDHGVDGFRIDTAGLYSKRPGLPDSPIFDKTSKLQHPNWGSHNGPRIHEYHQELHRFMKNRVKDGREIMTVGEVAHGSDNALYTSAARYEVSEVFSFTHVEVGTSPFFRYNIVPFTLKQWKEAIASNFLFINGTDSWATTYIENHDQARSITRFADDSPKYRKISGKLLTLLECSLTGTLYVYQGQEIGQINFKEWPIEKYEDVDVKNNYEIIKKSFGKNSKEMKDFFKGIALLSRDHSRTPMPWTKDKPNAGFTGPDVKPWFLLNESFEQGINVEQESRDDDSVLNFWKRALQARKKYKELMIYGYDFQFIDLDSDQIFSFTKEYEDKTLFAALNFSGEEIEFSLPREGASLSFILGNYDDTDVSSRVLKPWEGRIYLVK

In publication PMC10756989 (Heliyon, 2023):

Target: yeast α-glucosidase (Saccharomyces cerevisiae, UniProt P53341)
Assay: α-glucosidase enzyme inhibitory activity
Format: biochemical
Conditions: at 250 μg/mL, Fig. 6

SMILES: C[C@H]1O[C@H](O[C@H]2[C@H](O)[C@@H](O)[C@@H](O[C@H]3[C@H](O)[C@@H](O)C(O)O[C@@H]3CO)O[C@@H]2CO)[C@H](O)[C@@H](O)[C@@H]1N[C@H]1C=C(CO)[C@@H](O)[C@H](O)[C@H]1O (stereo partly shown) [Acarbose, reference compound]
- α-glucosidase percentage inhibition: did not exhibit statistically significant differences
